From ChEMBL document CHEMBL1128245, “Dual-acting thromboxane receptor antagonist/synthase inhibitors: synthesis and biological properties of [2-substituted-4-(3-pyridyl)-1,3-dioxan-5-yl] alkenoic acids” (J Med Chem, 1995) come the findings set out here.

Structures are written as SMILES.

Settings in all cases: Canis lupus familiaris
The subject of assay [1] is Thromboxane-A synthase (Canis familiaris). The experiment in a line: Ex vivo […] (TXA2 synthase) inhibitory activity after 5 hr of oral dosing (1 mg/kg) in the dog.
Assay [2] shares this test system. The assay is described as follows: Ex vivo […] (TXA2 synthase) inhibitory activity after 8 hr of oral dosing (1 mg/kg) in the dog.
Assay [3] has the same test system. The assay is described as follows: Ex vivo […] (TXA2 synthase) inhibitory activity after 24 hr of oral dosing (1 mg/kg) in the dog.

Regarding `Cc1ccc(OC(C)(C)C2OCC(C/C=C\CCC(=O)O)C(c3cccnc3)O2)c([N+](=O)[O-])c1` (stereo in doubt; 7x), the inhibition was found to be 53.5% in assay [1], 49.1% in assay [2] and 41.1% in assay [3].

In general, inhibition refers to how much of the control response was suppressed. A higher inhibition goes with a strong effect.
